Inhibition data for one compound are collected here from ChEMBL document CHEMBL6134854, “Development of Hydrazide-Based HDAC6 Selective Inhibitors for Treating NLRP3 Inflammasome-Related Diseases” (J Med Chem, 2025).

This experiment concerns the target T1, Protein deacetylase HDAC6 (Mus musculus) (UniProt Q9Z2V5).
T1 sequence (whole entry): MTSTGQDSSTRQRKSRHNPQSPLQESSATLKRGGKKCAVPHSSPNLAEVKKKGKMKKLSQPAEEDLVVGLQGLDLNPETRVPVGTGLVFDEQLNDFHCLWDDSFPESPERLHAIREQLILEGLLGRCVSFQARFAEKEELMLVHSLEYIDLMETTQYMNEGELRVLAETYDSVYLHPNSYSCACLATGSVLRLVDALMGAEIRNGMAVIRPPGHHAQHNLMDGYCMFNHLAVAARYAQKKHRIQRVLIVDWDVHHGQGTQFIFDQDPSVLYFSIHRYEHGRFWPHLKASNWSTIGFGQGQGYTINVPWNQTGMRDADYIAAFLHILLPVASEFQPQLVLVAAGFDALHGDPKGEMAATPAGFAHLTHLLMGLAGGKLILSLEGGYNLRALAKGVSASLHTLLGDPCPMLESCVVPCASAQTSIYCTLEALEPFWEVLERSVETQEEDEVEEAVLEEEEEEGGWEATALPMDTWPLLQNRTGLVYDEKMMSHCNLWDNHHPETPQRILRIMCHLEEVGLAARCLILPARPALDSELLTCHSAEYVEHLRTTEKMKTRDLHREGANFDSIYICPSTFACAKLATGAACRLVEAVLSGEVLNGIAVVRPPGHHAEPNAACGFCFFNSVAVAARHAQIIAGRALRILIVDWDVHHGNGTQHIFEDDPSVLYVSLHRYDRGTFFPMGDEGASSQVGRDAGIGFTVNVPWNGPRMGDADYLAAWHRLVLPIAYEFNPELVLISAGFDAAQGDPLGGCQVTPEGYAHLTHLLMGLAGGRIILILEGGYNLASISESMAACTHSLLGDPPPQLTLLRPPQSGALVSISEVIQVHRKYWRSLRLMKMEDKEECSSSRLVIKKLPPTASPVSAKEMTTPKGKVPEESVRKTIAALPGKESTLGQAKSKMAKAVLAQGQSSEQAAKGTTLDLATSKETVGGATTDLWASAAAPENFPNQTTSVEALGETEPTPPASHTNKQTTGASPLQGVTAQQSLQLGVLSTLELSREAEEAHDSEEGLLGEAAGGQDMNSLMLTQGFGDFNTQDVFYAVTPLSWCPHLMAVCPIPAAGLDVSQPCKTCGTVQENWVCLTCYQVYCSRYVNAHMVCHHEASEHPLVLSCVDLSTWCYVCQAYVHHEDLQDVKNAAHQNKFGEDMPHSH
The following applies: BALB/C, dose 20-40 mg/kg, route po, time 8.0 day.

Active and inactive are the calls of the source. The rule behind the calls is not given here.

As for `CCNNC(=O)c1cc(F)c(CN2c3ccccc3C=Cc3ccncc32)cc1F`, the inhibition result is “Active”.
